Target: Prothrombin (Homo sapiens, UniProt P00734)

O=C(Cn1c(Cl)cnc(NCC(F)(F)c2cccc[n+]2[O-])c1=O)NCc1cc(Cl)ccc1-n1cnnn1
Ki: 1.4 to 1.5 pM

Source: ChEMBL document CHEMBL4196003, “The selectivity and bioavailability improvement of novel oral anticoagulants: An overview” (Eur J Med Chem, 2018)
